Results published in patent US20250313560A1, “Novel bicyclic benzylamido pyridine derivatives as SOS1 inhibitors” (Boehringer Ingelheim International GmbH, priority 2024, published 2025).

By UniProt entry, the sequences of proteins in these tests, tags left out. Where a name states a change or a piece, a line headed by the entry shows the natural chain unless it says otherwise. Residues count along the entry.
UniProt Q07889, 564-1049 limits assumed, stated change not applied: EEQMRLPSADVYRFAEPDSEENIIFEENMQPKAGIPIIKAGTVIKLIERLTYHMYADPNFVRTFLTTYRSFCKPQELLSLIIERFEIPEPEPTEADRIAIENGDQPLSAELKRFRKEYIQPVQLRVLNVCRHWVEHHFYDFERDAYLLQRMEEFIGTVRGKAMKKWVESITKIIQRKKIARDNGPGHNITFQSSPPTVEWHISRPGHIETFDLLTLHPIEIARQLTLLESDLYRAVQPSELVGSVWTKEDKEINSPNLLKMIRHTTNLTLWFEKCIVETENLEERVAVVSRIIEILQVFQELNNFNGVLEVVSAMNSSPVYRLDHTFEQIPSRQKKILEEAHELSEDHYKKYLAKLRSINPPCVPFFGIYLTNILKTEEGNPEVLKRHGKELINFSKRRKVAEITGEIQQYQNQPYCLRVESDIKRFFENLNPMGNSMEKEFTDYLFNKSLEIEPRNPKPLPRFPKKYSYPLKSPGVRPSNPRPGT
UniProt P08684, whole entry: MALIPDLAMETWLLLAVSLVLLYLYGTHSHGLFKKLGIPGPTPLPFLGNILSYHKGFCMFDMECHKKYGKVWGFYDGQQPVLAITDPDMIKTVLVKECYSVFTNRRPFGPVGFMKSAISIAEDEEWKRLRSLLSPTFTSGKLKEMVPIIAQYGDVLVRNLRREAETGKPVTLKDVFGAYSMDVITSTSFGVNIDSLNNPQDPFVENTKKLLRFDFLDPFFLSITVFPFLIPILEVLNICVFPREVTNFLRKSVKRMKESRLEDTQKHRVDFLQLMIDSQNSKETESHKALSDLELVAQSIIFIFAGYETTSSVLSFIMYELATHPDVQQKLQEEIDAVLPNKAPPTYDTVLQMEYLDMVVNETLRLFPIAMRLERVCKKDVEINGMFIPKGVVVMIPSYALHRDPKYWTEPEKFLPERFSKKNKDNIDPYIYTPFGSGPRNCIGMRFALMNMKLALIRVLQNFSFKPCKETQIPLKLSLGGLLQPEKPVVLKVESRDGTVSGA

Legend:
SOS1 and KRAS G12C = SOS1 and KRAS G12C (Homo sapiens (Human), UniProt Q07889); test: KRAS::SOS1 AlphaScreen binding assay (KRAS G12C); details: read-out: IC50 [nM] G12C, average of at least two measurements
Method: (§1) Low IC50 values are indicative of high potency of the SOS1 inhibitor compound in this assay setting:
(§2) • GST-tagged SOS1 (564_1049_GST_TEV_ECO) produced in-house • 6xHis-Tev-K-RasG12D/G12C(1-169)Avi produced in-house • GDP (Sigma Cat No G7127) • AlphaLISA Glutathione Acceptor Beads (PerkinElmer, Cat No AL109) • AlphaScreen Streptavidin Donor Beads (PerkinElmer Cat No 6760002) • Assay plates: Proxiplate-384 PLUS, white (PerkinElmer, Cat No 6008289)
(§3) [formula] • KRAS::SOS1 GDP mix: • 7.5 nM (final assay concentration) K-RasG12C, 10 nM (final assay concentration) K-RasG12D, 10 μM (final assay concentration) GDP and 5 nM (final assay concentration) GST-SOS1 are mixed in assay buffer prior to use and kept at rt. […]
(§4) Compounds are diluted to a final start concentration of 100 μM and are tested in duplicate. Assay-ready plates (ARPs) are generated using an Access Labcyte Workstation with a Labcyte Echo 550 or 555 acoustic dispenser. […]
(§5) After a 30 minute incubation time, 5 μL of bead mix is added into columns 1-23. […] After a further 60 minutes incubation, the signal is measured using a PerkinElmer Envision HTS Multilabel Reader using the AlphaScreen specifications from PerkinElmer. […]
(§6) Result calculation: IC50 values are calculated and analyzed using a 4 parametric logistic model. […]

SOS1 and KRAS G12D = SOS1 and KRAS G12D (Homo sapiens (Human), UniProt Q07889); test: KRAS::SOS1 AlphaScreen binding assay (KRAS G12D); details: read-out: IC50 [nM] G12D, average of at least two measurements
Method: as §1, §2, §3, §4, §5, §6

[1] = system: ERK phosphorylation in NCI-H358 SOS2 KO cells (KRAS G12C); test: Erk phosphorylation assay; details: read-out: pERK IC50, EGF stimulated, average of at least two measurements
Method: Low IC50 values are indicative of high potency of the SOS1 inhibitor compounds in this assay setting.
ERK phosphorylation assays are performed using the following human cell line: • NCI-H358 SOS2 KO (Hofmann, Gmachl, Ramharter et al, Cancer Discov. 2021, 11(1):142-15): human lung cancer with a KRAS G12C mutation; […]
NCI-H358 SOS2 KO are seeded at 50000 cells per well in 60 μL of DMEM with 2% FBS, in Greiner TC 384 plates. […] After 20 minutes of incubation at rt with shaking, 6 μL of each lysate sample is transferred to a 384-well Proxiplate and analyzed for pERK (Thr202/Tyr204) with the AlphaLISA SureFire Ultra pERK1/2 (Thr202/Tyr204) Assay Kit. 3 μL Acceptor Mix and 3 μL Donor Mix are added under subdued light and incubated for 2 h at rt in the dark, before the signal is measured on a Perkin Elmer Envision plate reader using 384 AlphaScreen settings for Proxiplates. […]

human hepatocytes = test: Metabolic stability in human hepatocytes; details: 1 μM test compound, 50% human serum, percentage of liver blood flow
Method: The metabolic degradation of a test compound is performed with hepatocytes in suspension. After recovery from cryopreservation, human hepatocytes are diluted in Dulbecco's modified eagle medium (supplemented with 3.5 μg glucagon/500 mL, 2.5 mg insulin/500 mL, 3.75 mg hydrocortisone/500 mL, 50% human serum) to obtain a final cell density of 1.0×10^6 cells/mL. Following a preincubation in a cell culture incubator (37° C., 10% CO2), test compound dissolved in DMSO is mixed with the hepatocyte suspension, resulting in a final test compound concentration of 1 μM and a final DMSO concentration of 0.05%.
The cell suspension is incubated at 37° C. (cell culture incubator, horizontal shaker) and samples are removed from the incubation after 0, 0.5, 1, 2, 4 and 6 hours. […]
The percentage of remaining test compound is calculated using the peak area ratio (test compound/internal standard) of each incubation time point relative to the time point 0 peak area ratio. […]
In vitro intrinsic clearance (CLint) is calculated from in vitro T1/2 and scaled to whole liver using a hepatocellularity of 120×10^6 cells/g liver, a human liver per body weight of 25.7 g liver/kg as well as in vitro incubation parameters, applying the following equation: […]
Results are expressed as percentage of hepatic blood flow: […]
Table 3: Hepatic clearance expressed as percentage of liver blood flow (QH [%]) of exemplified compounds. […]

P450 3A4 = P450 3A4 (Homo sapiens (Human), UniProt P08684); test: Cytochrome P450 isoenzyme inhibition assay (P450 3A4, midazolam); details: read-out: CYP3A4 inhibition IC50; human liver microsomes, Midazolam as substrate
Method: The inhibition of the conversion of a specific substrate to its metabolite is assayed at 37° C. with human liver microsomes and used to determine the inhibition of cytochrome P450 isoenzymes. For the following cytochrome P450 isoenzymes, these substrates and metabolic reactions are monitored: P450 3A4: hydroxylation of Midazolam (MDZ).
The final incubation volume contains TRIS buffer (0.1 M), MgCl2 (5 mM), a certain concentration of human liver microsomes dependent on the P450 isoenzyme measured (P450 3A4: 0.1 mg/ml) and a certain concentration of the individual substrate for each isoenzyme (P450 3A4: Midazolam 5 μM).
The effect of the test compound is determined at five different concentrations in duplicate (e.g. highest concentration 50 μM with subsequent serial 1:4 dilutions) or without test compound (high control). […] Peak area analyte (=metabolite formed) and internal standard is determined by LC-MS/MS. […] Within each of the assay runs, the IC50 of a positive control inhibitor dependent on the P450 isoenzyme measured (P450 3A4: ketoconazole) is determined. The assay results are plotted against compound concentrations to calculated IC50 values (half maximal inhibitory concentrations) for inhibitory compounds utilizing Software IDBS E-WorkBook. […]

CYP3A4 = CYP3A4 (Homo sapiens (Human), UniProt P08684); test: Mechanism-based inhibition of CYP3A4 assay (MBI 3A4); details: human liver microsomes, midazolam substrate; hydroxy-midazolam formation after 30 min preincubation relative to 0 min
Method: Mechanism-Based Inhibition of CYP3A4 assay (MBI 3A4): The mechanism-based inhibition towards CYP3A4 is assayed in human liver microsomes with midazolam as substrate. The test compounds and water control (wells w/o test compound) are preincubated in presence of NADPH (1 mM) with human liver microsomes (0.2 mg/mL) at a concentration of 0, 5 and 25 μM for 0, 10 and 30 min. After preincubation, the incubate is diluted 1:10 (to 0.02 mg/mL) and the substrate midazolam (15 μM) is added for the main incubation (10 min). The main incubation is quenched with ACN and the formation of hydroxy-midazolam is quantified via LC/MS-MS. The formation of hydroxy-midazolam from the 30 min preincubation relative to the formation from the 0 min preincubation is used as a readout. Values of less than 100% mean that the substrate midazolam is metabolized to a lower extent upon 30 min preincubation compared to 0 min preincubation. In general, low effects upon 30 min preincubation are desired (corresponding to values close to 100%/not different to the values determined with water control).
Table 5: Mechanism-based inhibition of P450 isoenzyme 3A4 with midazolam as substrate. Data obtained with the disclosed assay for a selection of compounds (I) according to the invention. At least one measurement otherwise average values of at least two measurements.

Compound	IC50 (SOS1 and KRAS G12C) [nM]	IC50 (SOS1 and KRAS G12D) [nM]	IC50 [1] [nM]	Hepatic clearance - QH[%] in human hepatocytes (human hepatocytes) [%]	IC50 (P450 3A4) [nM]	MBI inhibition % ctrl. [%] with MDZ (CYP3A4) [%]
C[C@@H](NC(=O)c1cc([C@H]2CC[C@H](N3CC4CC4(O)C3)CC2)c2ncnn2c1)c1cccc(C(F)F)c1F (single isomer, unassigned) [Example E64b]	35	36	366	23	> 50000	76
C[C@@H](NC(=O)c1cc([C@H]2CC[C@H](N3CC4CC4(O)C3)CC2)c2ncnn2c1)c1cccc(C(F)F)c1F (single isomer, unassigned) [Example E64a]	41	39	198	16	> 50000	95
